Reference: US20220265667A1, “ETIFOXINE FOR USE IN THE TREATMENT OF DISEASES RELATED TO ACTIVATED MAST CELLS” (priority 2019, published 2022)

Test system: patient with therapy-resistant systemic mastocytosis
Assay: Human in-vivo off-label clinical test, symptom intensity by visual analog score (VAS)
Details: 6 week oral treatment, one patient
Method: A human in-vivo clinical test was conducted treating a patient with therapy-resistant systemic mastocytosis with off-label oral application of Etifoxine in full consent and patient agreement. The results of the clinical test were closely monitored, captured and documented together with patient. The patient is and diagnosed with systemic mastocytosis (WHO criteria, KIT816V positiv) with official diagnosis. The disease course over the past 25 year has been progressive and increasing therapy-resistant leading to job disability in the year 2019. The current daily treatment of the patient is: H1 antihistamine 3× daily, cromolyn 4×200 mg daily, PPI 110 mg daily, Vitamine C/Vitamine D upon need, Actonel, upon need decortin 40 to 60 mg. Xolair has been discontinued after 7 years upon onset of serum disease, and the patient was therapy-resistant towards the kinase-inhibitors Imatinib, Dasatinib and Sunitinib. […]
The symptom intensity was determined by a visual analog score (VAS; 0=no symptoms, 10=excruciating symptom intensity) on a weekly basis starting with a VAS baseline value before starting the intake of Etifoxine.

Compound: CCNC1=Nc2ccc(Cl)cc2C(C)(c2ccccc2)O1 (racemic) [Etifoxine, 6-Chloro-2-N-ethyl-4-methyl-4-phenyl-4H-3,1-benzoxazine-2-amine]
- reduction of clinical symptom intensity in each clinical symptom category: significant in each category
